The source of these data is patent US8367714B2, “Cannabinoid receptor targeted agent” (Vanderbilt University, priority 2007, dated 2013).

By UniProt entry, the sequences of proteins in these tests, tags left out.
UniProt P47936, whole entry: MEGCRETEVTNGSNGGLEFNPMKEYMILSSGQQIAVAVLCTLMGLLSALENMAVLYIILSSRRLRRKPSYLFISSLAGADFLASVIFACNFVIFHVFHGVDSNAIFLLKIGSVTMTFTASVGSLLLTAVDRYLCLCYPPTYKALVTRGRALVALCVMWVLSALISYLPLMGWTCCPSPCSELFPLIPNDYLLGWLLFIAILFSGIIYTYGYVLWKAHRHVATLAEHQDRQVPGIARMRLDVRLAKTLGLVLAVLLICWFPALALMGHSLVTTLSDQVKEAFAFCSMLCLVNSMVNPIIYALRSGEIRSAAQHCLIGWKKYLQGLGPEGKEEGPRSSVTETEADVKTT

This assay concerns the target mouse CB2 receptors (Mus musculus, UniProt P47936). The experiment in a line: Displacement of [3H]-SR144528 binding to membrane fractions from DBT cells stably expressing mouse CB2 receptors. Particulars: displacement of [3H]-SR144528, membranes of DBT cells expressing mouse CB2. The protocol: One NIR dye labeled conjugable SR144528 (NIRmbc94 or SR-NIR) was tested for its ability to displace the binding of [^3H]-SR144528 to membrane fractions from DBT cells stably expressing mouse CB2 receptors.

`Cc1cc(-c2cc(C(=O)NC3C4(C)CCC(C4)C3(C)C)nn2Cc2ccc(CNCCCCCCN)cc2)ccc1Cl` (stereo not shown) registered a Ki of 0.015 µM.
